The text below walks through data of patent US8847000B2 (priority 2006, dated 2014).

One series relates to cell proliferation. To be noted: read-out: IC50 value; 24 h, 37° C.; cytotoxicity, inhibition of cell growth.
The subject of a further series is mouse. To be noted: cited from earlier work; for LD50: 50% of the fatal dose in mouse.

One may read the IC50 as the concentration at which inhibition is half-maximal. In the case of Arsenic acid, the half-maximal inhibitory concentration (IC50) in the series on cell proliferation turned out to be 100 µM.

monomethyl arsonic acid: the LD50 in the series on mouse is reported as 1,800 mg/kg. The IC50 in the series on cell proliferation was more than 6000 µM.

Take arsenocholine: the LD50 with mouse is given as 6,000 mg/kg.

Turning to arsenobetaine, in the series with mouse, the LD50 is listed as 10,000 mg/kg and the “Acute toxicity value: LD50” value is 10000 mg/kg.

In the case of trimethylarsineoxide, in the series on mouse, the LD50 is recorded as 10,600 mg/kg and the “Acute toxicity value: LD50” value was 10600 mg/kg.
